The text below walks through data of patent publication US7737144B2, “Pyrimido[5,4-e][1,2,4]triazine-5-7-diones, processes for preparing them and their use” (Sanofi-Aventis Deutschland GmbH, priority 2003, dated 2010).

Sequences of proteins named here, by UniProt entry; tags and fusion partners are left off. Residues count along the entry.
UniProt P18031, 1-299 limits assumed: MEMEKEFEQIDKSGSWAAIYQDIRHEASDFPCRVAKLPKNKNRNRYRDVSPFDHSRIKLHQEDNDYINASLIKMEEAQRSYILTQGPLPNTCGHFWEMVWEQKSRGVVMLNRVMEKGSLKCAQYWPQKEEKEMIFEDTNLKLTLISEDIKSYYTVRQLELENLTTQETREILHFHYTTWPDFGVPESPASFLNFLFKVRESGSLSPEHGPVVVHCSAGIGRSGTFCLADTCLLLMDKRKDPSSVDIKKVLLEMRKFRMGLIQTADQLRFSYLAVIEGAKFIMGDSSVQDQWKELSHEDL

The experiment concerns the target recombinant human PTP1B (Homo sapiens, UniProt P18031). As to the kind of experiment: Inhibiting phosphotyrosine phosphatase 1B (PTP1B), in-vitro phosphatase assay. The class given is biochemical. The note with it: Table 2 Biological activity; substrate variant (phosphopeptide, p-nitrophenyl phosphate or DIFMUP) not stated. From the text:
Inhibiting Phosphotyrosine Phosphatase 1B (PTP1B)
The setting up and implementation of an in-vitro assay for detecting a phosphatase-inhibiting effect of the compounds according to the invention are described below. The isolation of the enzyme preparation and the implementation of the assay are described. […]
This assay is based on releasing phosphate from a consensus substrate peptide which is detected in the nanomolar concentration range using the malachite green/ammonium molybdate method (Lanzetta, P. A., Alvarez, L. J., Reinach, P. S., Candia, O. A. Anal Biochem. 100: 95-97, 1979) as adapted for the microtiter plate format. […] After incubating at 22° C. for 30 min, in order to develop the color, the absorption at 650 nm was determined using a microtiter plate reader (Molecular Devices). Samples and blanks were measured in triplicate. The PTP1B activity was calculated as nanomoles of phosphate released per min and mg of protein using potassium phosphate as the standard. The inhibition of the recombinant hPTP1B by test substances was calculated as percentages of the phosphatase control. […]

On to `CCn1nc(-c2ccccc2)nc2c(=O)n(C)c(=O)nc1-2` [2], for which the IC50 was determined as 380 nM.

`CCCc1ccc(-c2nc3c(=O)n(C)c(=O)nc-3n(CC)n2)cc1`: the half-inhibitory concentration (IC50) worked out at 750 nM.

One may read the IC50 as the concentration that inhibits the measured activity by half.
